Like-named read-outs stand apart in the source and are kept apart here.
T1: 5FAMcollagenPPT protease substrate
T1 sequence: AGGPLGPPGPGGK

T2: 5FAMcollagenPPT protease substrate
T2 chain: AGGPLGPPGPGGK

B1: thermolysin (protein)
chain: ITGTSTVGVGRGVLGDQKNINTTYSTYYYLQDNTRGNGIFTYDAKYRTTLPGSLWADADNQFFASYDAPAVDAHYYAGVTYDYYKNVHNRLSYDGNNAAIRSSVHYSQGYNNAFWNGSQMVYGDGDGQTFIPLSGGIDVVAHELTHAVTDYTAGLIYQNESGAINEAISDIFGTLVEFYANKNPDWEIGEDVYTPGISGDSLRSMSDPAKYGDPDHYSKRYTGTQDNGGVHINSGIINKAAYLISQGGTHYGVSVVGIGRDKLGKIFYRALTQYLTPTSNFSQLRAAAVQSATDLYGSTSQEVASVKQAFDAVGVK

What was measured:
[1] = test system: T1, 5FAMcollagenPPT protease substrate
[2] = target: T2, 5FAMcollagenPPT protease substrate

Molecule | time-dependent cleavage assay (fluorescence at 1, 5, 24 h; 10 µM peptide, 20 µg/mL protease) [1] | time-dependent cleavage assay (fluorescence at 1, 5, 24 h; 10 µM peptide, 20 µg/mL protease) [2]
Collagenase NB1 | almost all of the proteases tested, except for thermolysin, showed efficient cleavage of the protease substrate within the first hour | 
collagenase class I | almost all of the proteases tested, except for thermolysin, showed efficient cleavage of the protease substrate within the first hour | 
Collagenase I/II | almost all of the proteases tested, except for thermolysin, showed efficient cleavage of the protease substrate within the first hour | 
Neutral Protease | almost all of the proteases tested, except for thermolysin, showed efficient cleavage of the protease substrate within the first hour | 
B1 |  | by the five hour time point, thermolysin had also sufficiently cleaved the substrate

From patent US20190004036
